# Values quoted from earlier work, collected in patent publication US20250127796A1, “METHODS OF TREATING CANCER WITH PI3K INHIBITOR, GDC-0077” (Genentech, Inc., priority 2018, published 2025).
# By UniProt entry, the sequences of proteins in these tests, tags left out.
# UniProt P03372, whole entry: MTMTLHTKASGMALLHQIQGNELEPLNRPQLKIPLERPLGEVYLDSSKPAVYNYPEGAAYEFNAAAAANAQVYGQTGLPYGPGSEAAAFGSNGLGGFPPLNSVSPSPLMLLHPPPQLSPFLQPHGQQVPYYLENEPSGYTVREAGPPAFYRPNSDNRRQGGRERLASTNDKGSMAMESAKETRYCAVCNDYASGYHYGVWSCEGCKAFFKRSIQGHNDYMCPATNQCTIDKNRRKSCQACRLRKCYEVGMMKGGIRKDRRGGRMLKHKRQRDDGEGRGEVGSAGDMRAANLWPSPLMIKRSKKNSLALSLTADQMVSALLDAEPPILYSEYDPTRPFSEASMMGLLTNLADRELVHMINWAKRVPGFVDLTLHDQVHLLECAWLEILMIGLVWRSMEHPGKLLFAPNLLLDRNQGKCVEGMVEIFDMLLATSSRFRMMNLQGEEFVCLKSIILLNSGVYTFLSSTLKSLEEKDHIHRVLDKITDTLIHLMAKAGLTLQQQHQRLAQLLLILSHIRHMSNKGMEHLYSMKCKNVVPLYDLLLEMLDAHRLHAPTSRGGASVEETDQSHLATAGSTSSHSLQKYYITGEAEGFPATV
# Target: ER (Homo sapiens, UniProt P03372)
# Conditions: relative to tamoxifen; cited from earlier work
structure (smiles),measurement,value
"C[C@]12CC[C@@H]3c4ccc(O)cc4C[C@@H](CCCCCCCCC[S+]([O-])CCCC(F)(F)C(F)(F)F)[C@H]3[C@@H]1CC[C@@H]2O (stereo partly drawn) [fulvestrant, (7α,17β)-7-{9-[(4,4,5,5,5-pentafluoropentyl)sulfinyl]nonyl}estra-1,3,5(10)-triene-3,17-diol]","affinity for the ER, fold greater than that of tamoxifen",approximately 100 fold
